The text below walks through data of BindingDB's records for PubMed 10411589 (The University of Queensland, 1999).

By UniProt entry, the sequences of proteins in these tests, tags left out.
UniProt P23975, whole entry: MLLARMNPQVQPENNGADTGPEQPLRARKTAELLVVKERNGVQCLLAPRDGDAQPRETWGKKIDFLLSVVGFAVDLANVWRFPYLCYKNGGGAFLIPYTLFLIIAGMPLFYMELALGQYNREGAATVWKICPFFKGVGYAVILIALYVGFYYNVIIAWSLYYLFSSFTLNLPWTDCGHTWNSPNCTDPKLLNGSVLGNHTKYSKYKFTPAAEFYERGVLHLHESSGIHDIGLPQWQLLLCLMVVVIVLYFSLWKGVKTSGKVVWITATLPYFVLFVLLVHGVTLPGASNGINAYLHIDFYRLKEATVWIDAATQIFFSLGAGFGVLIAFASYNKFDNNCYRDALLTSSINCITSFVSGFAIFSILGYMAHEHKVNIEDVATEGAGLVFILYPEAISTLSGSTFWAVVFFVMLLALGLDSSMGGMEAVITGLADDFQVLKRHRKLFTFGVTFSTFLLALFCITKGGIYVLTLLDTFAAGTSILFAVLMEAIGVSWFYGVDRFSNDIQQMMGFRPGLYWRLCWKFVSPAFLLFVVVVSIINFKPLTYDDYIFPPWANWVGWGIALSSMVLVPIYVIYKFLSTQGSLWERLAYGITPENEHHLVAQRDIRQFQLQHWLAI

The structures appear in SMILES notation.

This test addresses Sodium-dependent noradrenaline transporter (Homo sapiens, UniProt P23975).

By Ki is commonly meant a measure of affinity in units of concentration, obtained from inhibition or displacement.

Compound `CN(C)CCCN1c2ccccc2CCc2ccccc21` registered a Ki of 118 nM.
